# Measured affinities in a library of Ab-14 heavy chain variants

All variants were tested on one target, the spike HR2 peptide PDVDLGDISGINAS (SARS-CoV-2).

Parent scFv Ab-14: VH joined to VL by a (GGGGS)3 linker. Changes lie in the heavy chain CDRs alone.
VH: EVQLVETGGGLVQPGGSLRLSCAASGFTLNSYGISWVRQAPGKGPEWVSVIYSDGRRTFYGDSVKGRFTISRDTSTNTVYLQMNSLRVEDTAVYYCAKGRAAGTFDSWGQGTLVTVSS
VL: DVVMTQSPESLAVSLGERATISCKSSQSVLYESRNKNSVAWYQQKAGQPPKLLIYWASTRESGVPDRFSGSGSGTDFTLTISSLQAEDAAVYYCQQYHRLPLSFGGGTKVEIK

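The parent was found by panning a naive human phage display library on the peptide. The variants were designed computationally from a first round of random CDR variants and then made and measured. Group labels follow the data file (Ctrl: baseline library sampled from a position-specific scoring matrix, with some repeated check sequences; Rand: our label for a block that the file lists under HC and that is probably the random mutants of the ten best first-round binders; En: ensemble of fine-tuned language models; GP: Gaussian process model; GPLM: also part of the Gaussian process libraries; HC: hill climbing; Gen: genetic algorithm; Gibbs: Gibbs sampling; a sequence that several methods proposed may carry one label only). In AlphaSeq, yeast of one mating type display the scFv and yeast of the other type display the target. Mating (16 h, 30 °C) was followed by selection of diploids and sequencing of their barcodes. Read counts were normalised to the haploid input and turned into Kd by a linear fit to BCL2-family pairs of known affinity, for each replicate. The assay was run in six technical replicates.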

The parent's heavy chain CDRs are GFTLNSYGIS, VIYSDGRRTFYGDSVK, GRAAGTFDS; each variant's own CDRs replace them letter for letter.
Affinities are written as log10 Kd with Kd in nM; a lower number is a better binder.
A mean of the replicates is given; it leaves out those without a signal.
An entry "n.d." has no value in the source: the pair was not observed among the diploids in that replicate. This suggests poor binding but is not conclusive.
Order: sorted from the lowest average up, undetected variants last.

CDR-H1 | CDR-H2 | CDR-H3 | group | log10 Kd (nM) by replicate | mean, log10 nM
GFDLNEYGIS | VIYADGRRTFYADSVK | GNVAGTFFE | En_HC | -0.10 -0.91 -0.50 -0.80 -1.20 -0.72 | -0.70
GFDLDEYGIS | VIYADGKRTAYVDSVK | GNVAGTFDI | En_Gen | -0.87 -1.05 -0.62 -0.70 -0.27 -0.50 | -0.67
GFDLNEYGIS | VIYADGMRTAYADNVK | GGVAGTFDV | En_Gen | -0.24 -0.53 -0.40 -1.18 -0.75 -0.74 | -0.64
GFDLNEYGIS | VIYADGVRTAYTDSVK | GQNAGTFDV | En_Gen | -0.44 -0.38 -0.34 -1.01 -0.56 -0.79 | -0.59
GFDLNEYGIS | VIYADGKRTAYSDDVK | GNVAGTFDV | En_Gen | -0.29 -0.74 -0.64 -0.51 -0.52 -0.60 | -0.55
GFDLNEYGIS | VIYADGQRTAYANSVK | GEVAGTFDV | En_Gen | -0.16 -0.54 -0.51 -0.72 -0.56 -0.45 | -0.49
GFDLNEYGIS | VIYADGQRTFYADSVK | GNNAGTFDV | En_Gen | -0.20 -0.49 -0.53 -0.38 -0.48 -0.22 | -0.38
GFTLNEYGIS | VIYADGRRTFYGDSVK | GRTAGTFDT | GP_Gibbs | -0.06 -0.29 -0.38 -0.69 -0.54 -0.14 | -0.35
GFDLESYGIS | VIYADGRRTFYADKVK | GENAGTFDV | En_HC | -0.04 0.29 -0.69 -0.51 -0.56 -0.40 | -0.32
GFDLNEYGIS | VIYADGRRTAYADSVK | GGNAGTFDM | En_Gen | -0.12 -0.11 -0.32 -0.33 -0.30 -0.11 | -0.21
GFDLNEYGIS | VIYADGIRTAYADSVK | GENAGTFDV | En_Gen | -0.14 -0.39 -0.02 -0.24 -0.63 0.19 | -0.20
GFTLNDYGIS | VIYSDGRRTFYGDSVK | GRVAGTFDT | GPLM_Gen | 0.51 -0.83 n.d. 1.32 -0.28 -0.91 | -0.04
GFTLNQYGIS | VIYSDGRRTAYQDSVK | GRAAGTFDS | GPLM_HC | -0.38 0.32 0.18 -0.26 -0.27 0.19 | -0.04
GFDLNSYGIS | VIYSDGRRTFYGDNVK | GREAGTFDD | GP_Gibbs | 0.00 -0.22 0.00 -0.22 0.52 -0.25 | -0.03
GFDLDEYGIS | VIYADGLRTAYADSVK | GNQAGTFDV | En_Gen | -0.07 0.33 -0.11 -0.10 -0.29 0.29 | 0.01
GFEIQDYGIS | VIYADGLRTAYSDKFK | GIIAGTFNV | En_Gibbs | 0.96 -0.17 -0.46 0.47 -0.63 0.00 | 0.03
GFDLNSYGIS | VIYSDGRRTFYIDSVK | GQTAGTFDS | GP_Gen | 0.25 0.04 0.07 -0.12 -0.12 0.28 | 0.07
GFDLNEYGIS | VIYADGMRTQYADSVK | GEQAGTFDL | En_HC | n.d. 0.30 -0.02 0.30 n.d. 0.10 | 0.17
GFDLNEYGIS | VIYADGRRTAYIDSVK | GENAGTFDL | En_HC | 0.89 n.d. -0.04 0.24 0.09 0.18 | 0.27
GFDLNSYGIS | VIYSDGRRTFYIDSVK | GTAAGTFDS | GP_Gen | 1.07 0.05 0.04 -0.04 0.34 0.23 | 0.28
GFDLNSYGIS | VIYSDGRRTFYGDSVK | GRIAGSFDS | GP_HC | 0.71 0.04 -0.15 0.42 0.77 0.11 | 0.32
GFDLNEYGIS | VIYADGKRTFYADDVK | GNVAGTFDV | En_Gen | 0.81 -0.15 0.07 0.91 0.07 0.54 | 0.37
GFTLNSYGIS | VIYSDGFRTFYLDSVK | GNAAGTFDS | Ctrl | 0.93 -0.15 -0.18 0.91 0.90 0.11 | 0.42
GFDLNSYGIS | VIYSDGRRTFYGDKVK | GQAAGTFDS | GP_Gibbs | 0.86 0.26 0.64 0.06 0.29 0.59 | 0.45
GFHLNQYGIS | VIYSDGRRTFYADSVK | GRAAGTFDS | GPLM_HC | 0.96 0.49 1.02 1.12 1.01 0.93 | 0.92
GFTMNSYGIS | VIYSDGFRTFYGDSVK | GRAAGTFDS | Ctrl | 0.80 0.97 n.d. 1.36 0.42 1.77 | 1.06
GKHLDEYGIS | VIYADGQRVAYSETVK | GIQGVNVDV | En_Gibbs | 1.52 1.22 1.95 1.69 0.80 0.18 | 1.23
GFTLNDYGIS | VIYSDGRRTFYGDSVK | GRAAGRFDS | Ctrl | n.d. n.d. n.d. 1.59 n.d. n.d. | 1.59
GFDLNSYGIS | VIYSDGRRTAYSDSVK | GRAGGTFDS | GP_HC | n.d. 2.37 1.79 1.15 2.11 0.74 | 1.63
GFQLNSYGIS | VIYSDGRRTFYGDSVK | GRLAGTFDS | Ctrl+GP_HC | n.d. n.d. 2.65 1.45 2.67 n.d.; 1.61 n.d. n.d. 1.32 1.85 1.72 | 1.90
GFTLLEYGIH | VIYSDGRRTFYGDSVK | GRAAGTFDE | Ctrl | n.d. 1.13 n.d. n.d. 1.83 2.83 | 1.93
NFDLNSYGIS | VIYSDGRRTFYGDSVK | GRQAGTFDS | GP_HC | 1.86 1.60 2.63 1.97 2.14 2.27 | 2.08
GFDLNSYGIS | VIYSDGRRTFYGDSVK | GRKAGTFES | GP_HC | 2.36 n.d. n.d. n.d. 2.92 1.50 | 2.26
GMDLNEYGIS | VIYADGLRTAYINAVK | GKQSVIVGH | En_Gibbs | n.d. n.d. n.d. n.d. n.d. 3.06 | 3.06
GETLNSYGIS | VIYSDGQRTFYGDSVK | GRAAGTWDS | Ctrl | n.d. 4.45 n.d. n.d. n.d. 2.85 | 3.65
GFTLTEYGIS | VIYSDGRRTFYGDSVK | GRAAVTFDQ | GPLM_HC | n.d. n.d. n.d. n.d. n.d. n.d. | n.d.
GFTLNSYGIS | VIYSDGRRTFYGDSVK | GRASATFDS | Ctrl | n.d. n.d. n.d. n.d. n.d. n.d. | n.d.
GFDLNEYGIS | VIYADGMRRAAANTVK | GMAYGFTLD | En_Gibbs | n.d. n.d. n.d. n.d. n.d. n.d. | n.d.
GFTLNDYGIS | VIYSDGRRTFYGDSVK | GRAALVFIS | Rand | n.d. n.d. n.d. n.d. n.d. n.d. | n.d.
GFDLSEYGIS | VIYADGTRKSYADNVK | GDYHYVVST | En_Gibbs | n.d. n.d. n.d. n.d. n.d. n.d. | n.d.
GFNLNSYGIS | VIYSDGRREFYSDSVK | GRATGHFDS | Ctrl | n.d. n.d. n.d. n.d. n.d. n.d. | n.d.
GFTLNSYGIS | VIYSDGRRTFYGDSVK | GRAAWTFVS | Ctrl | n.d. n.d. n.d. n.d. n.d. n.d. | n.d.
DFTLNSYGIS | VIYADGRRTFYGDSVV | GRKAGTFDS | Ctrl | n.d. n.d. n.d. n.d. n.d. n.d. | n.d.
GFTLNSYGPS | VIYSDGRRTFYEDSVK | GRAAGTFWS | Ctrl | n.d. n.d. n.d. n.d. n.d. n.d. | n.d.
GFTLNEPLIS | VIYSDGRRTFYGDSVK | GRAAVTFDQ | Rand | n.d. n.d. n.d. n.d. n.d. n.d. | n.d.
MFDLNSYGIS | VIYSDGRRTFYGDSVK | GQAAGTFDS | GP_Gen | n.d. n.d. n.d. n.d. n.d. n.d. | n.d.
GFTLNSYGIS | VIYADGRRTFYGDQVK | GRVAGTFKS | GP_HC | n.d. n.d. n.d. n.d. n.d. n.d. | n.d.
GFDLDEYGIS | VIYADGQRTAYADSVK | GNQAGTFDV | En_Gen | n.d. n.d. n.d. n.d. n.d. n.d. | n.d.

For reference, 7 entries of the list once more:

CDR-H1	CDR-H2	CDR-H3	group	log10 Kd (nM) by replicate	mean, log10 nM
GFDLNEYGIS	VIYADGVRTAYTDSVK	GQNAGTFDV	En_Gen	-0.44 -0.38 -0.34 -1.01 -0.56 -0.79	-0.59
GFEIQDYGIS	VIYADGLRTAYSDKFK	GIIAGTFNV	En_Gibbs	0.96 -0.17 -0.46 0.47 -0.63 0.00	0.03
GFHLNQYGIS	VIYSDGRRTFYADSVK	GRAAGTFDS	GPLM_HC	0.96 0.49 1.02 1.12 1.01 0.93	0.92
GFTLNDYGIS	VIYSDGRRTFYGDSVK	GRAAGRFDS	Ctrl	n.d. n.d. n.d. 1.59 n.d. n.d.	1.59
GFDLNSYGIS	VIYSDGRRTFYGDNVK	GREAGTFDD	GP_Gibbs	0.00 -0.22 0.00 -0.22 0.52 -0.25	-0.03
GFTLNSYGIS	VIYSDGRRTFYGDSVK	GRAAWTFVS	Ctrl	n.d. n.d. n.d. n.d. n.d. n.d.	n.d.
GFTLNEYGIS	VIYADGRRTFYGDSVK	GRTAGTFDT	GP_Gibbs	-0.06 -0.29 -0.38 -0.69 -0.54 -0.14	-0.35

Values of this round are not directly comparable with the first-round values of the same sequences.
The parent sequence was in this pool as ten entries: three were never detected, three once, and four in most replicates, with averages from 0.34 to 2.37.
In the paper, a design with two or fewer of six values counts as a poor binder.
As a blank, each scFv also met three strains without target: over all heavy chain designs, 1% of these pairings were detected, typically at 2.08 and seldom below 0.84.
Where one sequence has several entries in the source, the replicates are listed entry by entry, parted by semicolons.

Values reported by Li et al. 2023, doi:10.1038/s41467-023-39022-2 (FLAb copy).